The nature of this data set: in vivo. Conditions: albino, rat.

Molecules are shown by their SMILES.

Regarding `NC(=O)N1c2ccccc2C=Cc2ccccc21` [CARBAMAZEPINE], the selectivity ratio at 1 h was 101.
